Test results: US8497349B2, “Use of multivalent synthetic ligands of surface nucleolin for treating cancer or inflammation” (Centre National de la Recherche Scientifique (CNRS), priority 2006, dated 2013)

Columns and labels:
NIH-3T3 cells = experiment: Proliferation of NIH-3T3 cells stimulated by FGF-2 (tritiated thymidine incorporation); format: cell-based; conditions: 0.5 μM; 0.2 nM FGF-2
Description: FIG. 5. Effect of HB-19 on the proliferation of NIH-3T3 cells stimulated by 0.2 nM FGF-2 (A) or by 5% foetal calf serum (B). Quiescent NIH-3T3 cells are stimulated by FGF-2 or by 5% serum in the presence or not of HB19 at the concentrations indicated. After 24 hours of incubation, cell proliferation was determined by measuring the incorporation of tritiated thymidine. The results are given as a percentage with respect to the control stimulated by HARP (100%). MSD (threshold), (**p<0.01 and ***p<0.001).
In order to study whether the effect of HB-19 on the inhibition of cell proliferation is specific for a given growth factor such as HARP, two series of experiments were carried out which consisted in studying the effect of HB-19 on NIH 3T3 cells stimulated by: […]

HUVEC cells [1] = experiment: In vitro proliferation of HUVEC cells (cell count); format: cell-based, human; conditions: added each day; counted after 6 days
Description: (§1) FIG. 8. Effect of HB-19 on angiogenesis. A. Effect of HB19 tested on in vitro proliferation of HUVEC cells. 20000 HUVEC cells were cultured in wells and compound HB19 was added in different concentrations on each day. Cells were counted after 6 days of treatment. B. Effect of HB19 (1 μM) on the differentiation of HUVEC cells in a three-dimensional collagen gel cultured in the presence of HARP angiogenic factors (1 nM); VEGF (1 nM) and FGF-2 (3 nM) were also tested. After 4 days, tubular network structures were counted. The results are presented in arbitrary units. C. Effect of HB-19 on angiogenesis triggered HARP or FGF-2 in an in vivo angiogenesis model (/matrigel <<plug assay>>). Matrigel (300 μl) containing the indicated molecules is injected subcutaneously into mice. Mice were sacrificed after one week and matrigel was removed. 8 μm thick cuts were performed. After staining, the number of endothelial cells is estimated by image analysis. For each matrigel, 5 cuts and 4 mice were analysed per experimental point.
Firstly, this effect was tested on the in vitro proliferation of endothelial cells (HUVEC: Human umbilical vein endothelial cells). 20000 HUVEC cells per well were cultured and compound HB19 was added in different concentrations on each day. Cells were counted after 6 days of treatment.

HUVEC cells [2] = experiment: Differentiation of HUVEC cells in three-dimensional collagen gel (tubular network structures); format: cell-based, human; conditions: 1 μM; HARP 1 nM, VEGF 1 nM, FGF-2 3 nM; 4 days
Description: as §1
The effect of the presence of HB19 (1 μM) on the differentiation of HUVEC cells in a three-dimensional collagen gel cultured in the presence of HARP angiogens (1 nM), VEGF (1 nM) and FGF-2 (3 nM) were also tested. After 4 days, tubular network structures were counted.

surface nucleolin = experiment: Purification of proteins bound to HB19 after in vivo administration
Description: This greatly limits the possibility of the occurrence of side effects.

IL-8 = IL-8 production by HUVEC cells stimulated by LPS (ELISA); format: cell-based, human; conditions: 5 μM of HB-19; LPS 100 ng/ml; 20 hours
Description: FIG. 21. Inhibition by HB-19 of IL-8 production and ICAM-1 expression by human umbilical vascular endothelial cells (HUVEC) stimulated by LPS. HUVEC cells at 10 000 cells/cm^2 were cultured in 96-well plates in EBM-2 medium containing 2% foetal calf serum. Cells in the absence or presence of 5 μM of HB-19 were stimulated with Escherichia coli serotype 055:B5 at 100 ng/ml. Cell cultures were incubated at 37° C. in an incubator with 5% CO2 for 20 hours and IL-8 and ICAM-1 protein levels were measured by ELISA. HUVEC cells in the presence or absence of 5 μM of HB-19 were used as the control for base levels.
HUVEC cells at a concentration of 10 000 cells/cm^2 were cultured in 96-well plates in EBM-2 medium containing 2% foetal calf serum. Cells in the absence or presence of 5 μM of HB-19 were stimulated by LPS from Escherichia coli serotype 055:B5 at 100 ng/ml. Cell cultures were incubated at 37° C. in an incubator with 5% CO2 for 20 hours. Levels of IL-8 and ICAM-1 were measured by ELISA. HUVEC cells in the absence or presence of 5 μm of HB-19 were used as a control to show the base level.

TNF-α = TNF-α production by human primary PBMC stimulated by heat-killed Staphylococcus aureus (ELISA); format: cell-based; conditions: 10 μM; 10^8 HKSA/ml particles; 20 hours
Description: FIG. 22. Inhibition by HB-19 of the production of TNF-α and IL-6 by primary human mononuclear peripheral blood cells (PBMC) stimulated by Staphylococcus aureus bacteria inactivated by heat (HKSA, <<heat-killed Staphylococcus aureus>>). PBMCs were isolated by centrifugation on a Ficoll density gradient using whole human blood EDTA-potassium and resuspended in RPMI 1640 containing 1% human serum AB (Invitrogen). Cells at a concentration of 10^6 cell/0.5 ml, in the absence (control) or presence (10 μM) of HB-19, Nucant 3, Nucant 6 or Nucant 7 or Dexamethasone (Dex. 1 μg/ml), were stimulated with 10^8 HKSA/ml particles (InvivoGen, San Diego, USA). PBMC cultures were incubated at 37° C. in an incubator with 5% CO2 and TNF-α (A) and IL-6 (B) levels were measured by ELISA in culture supernatants collected after 20 hours of incubation.
The inventors therefore measured TNF-α and IL-6 levels in human primary PBMC cultures in response to Staphylococcus aureus bacteria inactivated by heat (HKSA, <<heat-killed Staphylococcus aureus>>), in the absence (control) or presence of 10 μM of the compounds HB-19, Nucant 3, Nucant 6, or Nucant 7. As the positive control (Dex.), PBMC was also treated with dexamethasone which is a glucocorticosteroid with known anti-inflammatory and immunosuppressant activity. […]

## CCCC[C@H](NC(=O)[C@H](CCCCNC(=O)[C@H](CCCNC(=N)N)NC(=O)[C@@H]1CCCN1C[C@@H](N)CCCCN)NC(=O)[C@H](CCC(=O)O)NC(=O)[C@H](CCCCNC(=O)[C@H](CCCNC(=N)N)NC(=O)[C@@H]1CCCN1C[C@@H](N)CCCCN)NC(=O)[C@@H]1CCCN1C(=O)CNC(=O)[C@H](CCCCNC(=O)[C@H](CCCNC(=N)N)NC(=O)[C@@H]1CCCN1C[C@@H](N)CCCCN)NC(=O)[C@H](CCCCN)NC(=O)[C@H](CCCCNC(=O)[C@H](CCCNC(=N)N)NC(=O)[C@@H]1CCCN1C[C@@H](N)CCCCN)NC(=O)[C@H](CCCNC(=N)N)NC(=O)[C@@H]1CCCN1C[C@@H](N)CCCCN)C(N)=O [HB19, 5[Kpsi(CH2N)PR]-TASP]
NIH-3T3 cells
  inhibition of proliferation of cells stimulated by FGF-2: capable of inhibiting
HUVEC cells [1]
  effect on proliferation of endothelial cells: leads to inhibition
HUVEC cells [2]
  effect on differentiation of HUVEC cells in collagen gel: inhibits the differentiation
Surface nucleolin
  surface nucleolin among purified proteins bound to the compound: over 90%
IL-8
  degree of inhibition of IL-8 production: around 50%
TNF-α
  inhibition of TNF-α production: significant inhibition
